Amino acid sequences for entries named in this document (tags omitted). A change or cut given only in a name is not applied to a line headed by its entry.
UniProt Q9UHD2: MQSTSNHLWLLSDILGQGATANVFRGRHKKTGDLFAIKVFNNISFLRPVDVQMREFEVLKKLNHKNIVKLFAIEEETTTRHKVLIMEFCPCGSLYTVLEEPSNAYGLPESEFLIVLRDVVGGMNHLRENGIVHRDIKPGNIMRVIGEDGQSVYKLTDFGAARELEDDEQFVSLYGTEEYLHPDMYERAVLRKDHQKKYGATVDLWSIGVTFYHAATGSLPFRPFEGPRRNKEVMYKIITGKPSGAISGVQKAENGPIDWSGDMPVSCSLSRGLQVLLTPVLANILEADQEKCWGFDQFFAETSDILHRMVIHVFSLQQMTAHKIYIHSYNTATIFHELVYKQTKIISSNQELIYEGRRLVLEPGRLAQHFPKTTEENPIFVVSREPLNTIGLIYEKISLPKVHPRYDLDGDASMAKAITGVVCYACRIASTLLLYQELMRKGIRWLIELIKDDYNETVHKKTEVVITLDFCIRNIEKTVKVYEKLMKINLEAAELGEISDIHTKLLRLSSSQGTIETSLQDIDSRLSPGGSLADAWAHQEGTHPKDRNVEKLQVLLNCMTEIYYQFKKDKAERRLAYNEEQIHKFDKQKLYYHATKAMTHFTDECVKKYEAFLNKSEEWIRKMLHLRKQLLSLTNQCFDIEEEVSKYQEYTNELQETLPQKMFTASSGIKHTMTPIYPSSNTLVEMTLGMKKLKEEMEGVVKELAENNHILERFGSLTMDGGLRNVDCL

In patent US10253019B2, “Tank-binding kinase inhibitor compounds” (Gilead Sciences, Inc., priority 2014, dated 2019):

Biological target: TBK1 (Homo sapiens (Human), UniProt Q9UHD2)
Test: TBK1 TR-FRET enzymatic assay
Settings: read-out: TBK1 IC50

“2-(((3R,4S)-4-fluoro-1-(2-hydroxyacetyl)pyrrolidin-3-yl)oxy)-5-(4-((4-(4-(oxetan-3-yl)piperazin-1-yl)phenyl)amino)-1,3,5-triazin-2-yl)benzonitrile [Example 101]” was tested, and the IC50 was 14 nM.
